Earlier results as cited in US10905685B2 (priority 2012, dated 2021).

Settings: in vivo

What does the source list for `CN1CC[C@]23c4c5ccc(O)c4O[C@H]2C(=O)CC[C@H]3C1C5` [hydromorphone, 4,5-α-epoxy-3-hydroxy-17-methyl morphinan-6-one]?
strength relative to heroin on a milligram basis: about three times stronger than heroin; strength relative to morphine on a milligram basis: about eight times stronger than morphine
